# From PubChem BioAssay AID2553 (Johns Hopkins Ion Channel Center, 2010)
# Protein sequences, listed by entry. Tags and fused reporters are not part of them.
# UniProt Q61143, whole entry: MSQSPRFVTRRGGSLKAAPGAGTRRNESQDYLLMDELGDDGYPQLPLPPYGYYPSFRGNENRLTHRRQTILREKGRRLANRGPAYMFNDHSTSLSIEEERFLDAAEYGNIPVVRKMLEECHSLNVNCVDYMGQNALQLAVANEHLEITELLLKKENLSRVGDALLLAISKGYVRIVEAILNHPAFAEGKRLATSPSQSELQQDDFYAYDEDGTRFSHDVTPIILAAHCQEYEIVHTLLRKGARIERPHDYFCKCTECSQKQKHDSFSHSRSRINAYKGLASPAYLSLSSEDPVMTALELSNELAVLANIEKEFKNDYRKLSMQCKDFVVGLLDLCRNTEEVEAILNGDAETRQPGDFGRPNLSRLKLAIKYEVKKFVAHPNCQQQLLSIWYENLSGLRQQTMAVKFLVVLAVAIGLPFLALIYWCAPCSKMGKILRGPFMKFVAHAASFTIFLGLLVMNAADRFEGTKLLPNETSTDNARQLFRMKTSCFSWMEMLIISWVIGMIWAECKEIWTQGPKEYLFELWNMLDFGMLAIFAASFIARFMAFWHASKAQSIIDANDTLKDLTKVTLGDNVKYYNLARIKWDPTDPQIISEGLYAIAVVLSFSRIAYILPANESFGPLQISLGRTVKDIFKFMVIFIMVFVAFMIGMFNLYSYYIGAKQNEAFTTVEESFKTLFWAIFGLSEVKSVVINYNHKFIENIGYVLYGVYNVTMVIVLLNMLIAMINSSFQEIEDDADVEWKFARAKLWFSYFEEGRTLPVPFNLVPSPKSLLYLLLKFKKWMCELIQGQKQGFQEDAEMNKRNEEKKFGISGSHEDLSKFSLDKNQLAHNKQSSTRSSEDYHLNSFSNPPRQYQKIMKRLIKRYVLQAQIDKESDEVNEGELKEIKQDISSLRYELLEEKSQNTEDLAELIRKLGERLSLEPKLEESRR
# The entries are a selection whose mix differs from that of the whole data set. Some tests of the compounds listed are not included; inactive here does not mean inactive elsewhere. The source made the active and inactive calls.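 Rule for the calls: active = B-score under library mean minus 3 SD, initial fluorescence not abnormally high, positive integrated signal ratio; inactive = the rest.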
# Molecular target: Short transient receptor potential channel 6 (Mus musculus) (UniProt Q61143)
# Experiment: mouse TRPC6 channel inhibitors, primary screen, cell-based, HEK293, membrane potential dye (AID 2553);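 for B-score: B-score derived from integrated fluorescence ratio over the kinetic read; more negative B-score means stronger inhibition of depolarization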
# Details: ACh-evoked depolarization, at 10 µM; hits give low values
SMILES,outcome,B-score
C=CCN1CCN(CCOC(=O)C(O)(c2ccccc2)c2ccccc2)CC1,inactive,
O=C(NCC1(N2CCCCC2)CCCCC1)c1cc(F)c(F)cc1Cl,inactive,
Cc1cc(C(=O)NCC2(N3CCCCC3)CCCCC2)ccc1[N+](=O)[O-],inactive,
CCN1CCCC(OC(=O)C2(O)c3ccccc3C=Cc3ccccc32)C1 (centres undefined),inactive,
O=C(NCC1(N2CCCCC2)CCCCC1)c1cccc(Br)c1,inactive,
COc1ccc(C(=O)NCC2(N(C)C)CCCCC2)cc1,inactive,
Cc1ccccc1C(=O)NCC1(N2CCCCC2)CCCCC1,inactive,
CN(C)C1CCCC1OC(=O)C(O)(c1ccccc1)c1ccccc1 (centres undefined),inactive,
CN(C)c1ccc(C(=O)NCC2(N(C)C)CCCCC2)cc1,inactive,
CC(C)N1C(=O)CC2(CCN(CCOC(=O)C(O)(c3ccccc3)c3ccccc3)CC2)C1=O,inactive,
CCN(CC)CC(C)C(C)OC(=O)C(O)(c1ccccc1)c1ccccc1 (centres undefined),,active: -5.03
COc1cc(SC)ccc1C(=O)NCC1(N(C)C)CCCCC1,inactive,
Cc1ccc(C(=O)NCC2(N3CCCCC3)CCCCC2)cc1,inactive,
O=C(NCC1(N2CCCCC2)CCCCC1)c1cc([N+](=O)[O-])ccc1Cl,inactive,
CN1[C@@H]2CC[C@H]1CC(OC(=O)C(O)(c1ccccc1)c1ccccc1)C2 (some centres undefined),,active: -5.3
COc1ccc(Br)c(C(=O)NCC2(N3CCCCC3)CCCCC2)c1,inactive,
CN(C)c1cccc(C(=O)NCC2(N(C)C)CCCCC2)c1,inactive,
CC(C)Oc1ccc(C(=O)NCC2(N(C)C)CCCCC2)cc1,inactive,
O=C(OC1CN2CCC1CC2)C(CO)(c1ccccc1)c1ccccc1 (centres undefined),,active: -7.87
COc1cccc(C(=O)NCC2(N3CCCCC3)CCCCC2)c1,inactive,
COc1ccc(Cl)cc1C(=O)NCC1(N(C)C)CCCCC1,inactive,
O=C(NCC1(N2CCCCC2)CCCCC1)c1cccc(Cl)c1,inactive,
CN(C)C1(CNC(=O)c2ccc(Br)cc2)CCCCC1,inactive,
COc1cc(C(=O)NCC2(N(C)C)CCCCC2)c([N+](=O)[O-])cc1OC,inactive,
